Entries after “also recorded” stand apart in the source; their conditions may differ.
What was measured:
N87-TM-1 cells = settings: N87-TM-1 versus parental N87
Experimental: (§1) N87 cells were passaged into two separate flasks and each flask was treated identically with respect to the resistance-generation protocol to enable biological duplicates. […] The procedure was intended to simulate the chronic, multi-cycle (on/off) dosing at maximally tolerated doses typically used for cytotoxic therapeutics in the clinic, followed by a recovery period. […] Data were collected from various thawed cryopreserved populations derived from a single selection, over approximately 1-2 years after model development to ensure consistency in the results.
(§2) ADCs were prepared as indicated in Example 3. Unconjugated maytansine analog (DM1) and auristatin analogs were prepared by Pfizer Worldwide Medicinal Chemistry (Groton, Conn.). Other standard-of-care chemotherapeutics were purchased from Sigma (St. Louis, Mo.). Cells were seeded in 96-well plates at low density, then treated the following day with ADCs and unconjugated payloads at 3-fold serial dilutions at 10 concentrations in duplicate. Cells were incubated for 4 days in a humidified 37° C./5% CO2 incubator. The plates were harvested by incubating with CellTiter® 96 AQueous One MTS Solution (Promega, Madison, Wis.) for 1.5 hours and absorbance measured on a Victor plate reader (Perkin-Elmer, Waltham, Mass.) at wavelength 490 nm. IC50 values were calculated using a four-parameter logistic model with XLfit (IDBS, Bridgewater, N.J.).

N87-TM-2 cells = settings: N87-TM-2 versus parental N87
Experimental: as §1, §2

N87-TM-2 tumors = assay: In vivo efficacy on T-DM1 resistant N87-TM-2 tumors in NSG mice; design: species or system mouse; settings: 6 and 10 mg/kg, Q4Dx4, N87-TM-2 model
N87-TM tumors = assay: In vivo efficacy on N87-TM tumors refractory to T-DM1, switch of therapy at day 14; design: species or system mouse; settings: switch to T(kK183C+K290C)-vc0101 at day 14
[1] = system: N87 cell line xenograft tumors; assay: Bystander effect, immunohistochemistry (human IgG, pHH3) of N87 xenograft tumors; type: in vivo, mouse; settings: single dose, T-DM1 6 mg/kg or T-vc0101 3 mg/kg, 96 hours
Text: The ability of a released ADC payload to kill neighboring cells is known as the bystander effect. […] Tumor sections were stained for human IgG to detect ADC bound to tumor cells and phospho-histone H3 (pHH3) to detect mitotic cells as a readout of the proposed mechanism of action for the payloads of both ADCs.

[2] = system: T-DM1 resistant cells (N87-TDM); assay: Cytotoxicity on cells relapsed from T-DM1 treatment in vivo (CellTiter Glo, 96 hours); type: cell-based; settings: compared to parental N87
Experimental: Cells were incubated for 96 hours in a humidified 37° C./5% CO2 incubator.

[3] = system: Her2-expressing cell lines BT474 and SKBR3; assay: ADCC assay (LDH release, NK-92 or human PBMC effector cells); type: cell-based; settings: 1 μg/ml antibody or ADC, 6 hours
[4] = system: GA0044 patient-derived xenografts; assay: GA0044 patient-derived gastric cancer xenograft model; type: in vivo, mouse; settings: IV Q4dx4, dose not stated

For T-DM1, the “refractory to the ADC compared with parental cells” value (N87-TM-1 cells) was 114 fold, the “refractory to the ADC compared with parental cells” value (N87-TM-2 cells) was 146 fold and the “prevention of tumor doubling” value (N87-TM-2 tumors) was “failed to do so”. The tumor growth response (N87-TM tumors) was “grew through these treatments”.

For “T-vc0101: trastuzumab conventionally conjugated to 0101 via vc linker; DAR 4.2”, the bystander effect [1] was “able to elicit a strong bystander effect; also recorded: Bystander activity is observed”, the “location of the majority of pHH3 positive tumor cells” value [1] was “extend beyond the location of the ADC” and the “sensitivity of cells relapsed from T-DM1 treatment (in words)” value [2] was “sensitive”.

For trastuzumab, the “ADCC activity (in words)” value [3] was “conform the reported ADCC activities” and the “tumor growth compared to vehicle” value [4] was “no appreciable difference in tumor growth as compared to vehicle treated tumors”.
